The list shows a part of the results, in another mix than the full data. Results filed as inconclusive are left out. Calls of active or inactive are those of the source. Calls follow the shape of the dose curve; as a rule, active = well fitted inhibition curve with a large enough effect in the polarisation, with a control signal flat (not every such curve was filed as active); inconclusive = small, poorly fitted or top-dose-only effect, or effect the other way, or a change in a side signal; inactive = no such curve, though single readings can be large or run the other way; the % refers to the polarisation.
Molecular target: Menin (Homo sapiens) (UniProt O00255)
Assay: qHTS Assay for Inhibitors Targeting the Menin-MLL Interaction in MLL Related Leukemias: Competition With Texas Red Labeled MLL-derived Mutant Peptide; also: % of control where 0% means no effect
Conditions: fluorescence polarization; at 61.6 µM (top of the series)

Chains of the proteins cited; added tags and fusions are not shown.
UniProt O00255, whole entry: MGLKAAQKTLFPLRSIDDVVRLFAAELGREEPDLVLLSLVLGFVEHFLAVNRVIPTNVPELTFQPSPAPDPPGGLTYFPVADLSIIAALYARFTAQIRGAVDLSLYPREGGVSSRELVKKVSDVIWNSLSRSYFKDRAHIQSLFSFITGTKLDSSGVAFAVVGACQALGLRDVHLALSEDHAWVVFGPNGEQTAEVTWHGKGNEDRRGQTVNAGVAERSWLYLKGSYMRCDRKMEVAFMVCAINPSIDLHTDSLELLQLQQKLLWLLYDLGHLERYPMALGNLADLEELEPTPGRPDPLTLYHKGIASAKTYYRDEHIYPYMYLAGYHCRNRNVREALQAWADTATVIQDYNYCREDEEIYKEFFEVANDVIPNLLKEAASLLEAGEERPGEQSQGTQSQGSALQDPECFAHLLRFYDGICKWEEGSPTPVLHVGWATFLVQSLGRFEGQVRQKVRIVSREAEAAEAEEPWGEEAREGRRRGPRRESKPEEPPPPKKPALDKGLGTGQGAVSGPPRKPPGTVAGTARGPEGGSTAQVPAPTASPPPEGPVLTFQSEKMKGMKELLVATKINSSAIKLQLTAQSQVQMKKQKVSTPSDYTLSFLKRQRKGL
UniProt Q03164, whole entry partner: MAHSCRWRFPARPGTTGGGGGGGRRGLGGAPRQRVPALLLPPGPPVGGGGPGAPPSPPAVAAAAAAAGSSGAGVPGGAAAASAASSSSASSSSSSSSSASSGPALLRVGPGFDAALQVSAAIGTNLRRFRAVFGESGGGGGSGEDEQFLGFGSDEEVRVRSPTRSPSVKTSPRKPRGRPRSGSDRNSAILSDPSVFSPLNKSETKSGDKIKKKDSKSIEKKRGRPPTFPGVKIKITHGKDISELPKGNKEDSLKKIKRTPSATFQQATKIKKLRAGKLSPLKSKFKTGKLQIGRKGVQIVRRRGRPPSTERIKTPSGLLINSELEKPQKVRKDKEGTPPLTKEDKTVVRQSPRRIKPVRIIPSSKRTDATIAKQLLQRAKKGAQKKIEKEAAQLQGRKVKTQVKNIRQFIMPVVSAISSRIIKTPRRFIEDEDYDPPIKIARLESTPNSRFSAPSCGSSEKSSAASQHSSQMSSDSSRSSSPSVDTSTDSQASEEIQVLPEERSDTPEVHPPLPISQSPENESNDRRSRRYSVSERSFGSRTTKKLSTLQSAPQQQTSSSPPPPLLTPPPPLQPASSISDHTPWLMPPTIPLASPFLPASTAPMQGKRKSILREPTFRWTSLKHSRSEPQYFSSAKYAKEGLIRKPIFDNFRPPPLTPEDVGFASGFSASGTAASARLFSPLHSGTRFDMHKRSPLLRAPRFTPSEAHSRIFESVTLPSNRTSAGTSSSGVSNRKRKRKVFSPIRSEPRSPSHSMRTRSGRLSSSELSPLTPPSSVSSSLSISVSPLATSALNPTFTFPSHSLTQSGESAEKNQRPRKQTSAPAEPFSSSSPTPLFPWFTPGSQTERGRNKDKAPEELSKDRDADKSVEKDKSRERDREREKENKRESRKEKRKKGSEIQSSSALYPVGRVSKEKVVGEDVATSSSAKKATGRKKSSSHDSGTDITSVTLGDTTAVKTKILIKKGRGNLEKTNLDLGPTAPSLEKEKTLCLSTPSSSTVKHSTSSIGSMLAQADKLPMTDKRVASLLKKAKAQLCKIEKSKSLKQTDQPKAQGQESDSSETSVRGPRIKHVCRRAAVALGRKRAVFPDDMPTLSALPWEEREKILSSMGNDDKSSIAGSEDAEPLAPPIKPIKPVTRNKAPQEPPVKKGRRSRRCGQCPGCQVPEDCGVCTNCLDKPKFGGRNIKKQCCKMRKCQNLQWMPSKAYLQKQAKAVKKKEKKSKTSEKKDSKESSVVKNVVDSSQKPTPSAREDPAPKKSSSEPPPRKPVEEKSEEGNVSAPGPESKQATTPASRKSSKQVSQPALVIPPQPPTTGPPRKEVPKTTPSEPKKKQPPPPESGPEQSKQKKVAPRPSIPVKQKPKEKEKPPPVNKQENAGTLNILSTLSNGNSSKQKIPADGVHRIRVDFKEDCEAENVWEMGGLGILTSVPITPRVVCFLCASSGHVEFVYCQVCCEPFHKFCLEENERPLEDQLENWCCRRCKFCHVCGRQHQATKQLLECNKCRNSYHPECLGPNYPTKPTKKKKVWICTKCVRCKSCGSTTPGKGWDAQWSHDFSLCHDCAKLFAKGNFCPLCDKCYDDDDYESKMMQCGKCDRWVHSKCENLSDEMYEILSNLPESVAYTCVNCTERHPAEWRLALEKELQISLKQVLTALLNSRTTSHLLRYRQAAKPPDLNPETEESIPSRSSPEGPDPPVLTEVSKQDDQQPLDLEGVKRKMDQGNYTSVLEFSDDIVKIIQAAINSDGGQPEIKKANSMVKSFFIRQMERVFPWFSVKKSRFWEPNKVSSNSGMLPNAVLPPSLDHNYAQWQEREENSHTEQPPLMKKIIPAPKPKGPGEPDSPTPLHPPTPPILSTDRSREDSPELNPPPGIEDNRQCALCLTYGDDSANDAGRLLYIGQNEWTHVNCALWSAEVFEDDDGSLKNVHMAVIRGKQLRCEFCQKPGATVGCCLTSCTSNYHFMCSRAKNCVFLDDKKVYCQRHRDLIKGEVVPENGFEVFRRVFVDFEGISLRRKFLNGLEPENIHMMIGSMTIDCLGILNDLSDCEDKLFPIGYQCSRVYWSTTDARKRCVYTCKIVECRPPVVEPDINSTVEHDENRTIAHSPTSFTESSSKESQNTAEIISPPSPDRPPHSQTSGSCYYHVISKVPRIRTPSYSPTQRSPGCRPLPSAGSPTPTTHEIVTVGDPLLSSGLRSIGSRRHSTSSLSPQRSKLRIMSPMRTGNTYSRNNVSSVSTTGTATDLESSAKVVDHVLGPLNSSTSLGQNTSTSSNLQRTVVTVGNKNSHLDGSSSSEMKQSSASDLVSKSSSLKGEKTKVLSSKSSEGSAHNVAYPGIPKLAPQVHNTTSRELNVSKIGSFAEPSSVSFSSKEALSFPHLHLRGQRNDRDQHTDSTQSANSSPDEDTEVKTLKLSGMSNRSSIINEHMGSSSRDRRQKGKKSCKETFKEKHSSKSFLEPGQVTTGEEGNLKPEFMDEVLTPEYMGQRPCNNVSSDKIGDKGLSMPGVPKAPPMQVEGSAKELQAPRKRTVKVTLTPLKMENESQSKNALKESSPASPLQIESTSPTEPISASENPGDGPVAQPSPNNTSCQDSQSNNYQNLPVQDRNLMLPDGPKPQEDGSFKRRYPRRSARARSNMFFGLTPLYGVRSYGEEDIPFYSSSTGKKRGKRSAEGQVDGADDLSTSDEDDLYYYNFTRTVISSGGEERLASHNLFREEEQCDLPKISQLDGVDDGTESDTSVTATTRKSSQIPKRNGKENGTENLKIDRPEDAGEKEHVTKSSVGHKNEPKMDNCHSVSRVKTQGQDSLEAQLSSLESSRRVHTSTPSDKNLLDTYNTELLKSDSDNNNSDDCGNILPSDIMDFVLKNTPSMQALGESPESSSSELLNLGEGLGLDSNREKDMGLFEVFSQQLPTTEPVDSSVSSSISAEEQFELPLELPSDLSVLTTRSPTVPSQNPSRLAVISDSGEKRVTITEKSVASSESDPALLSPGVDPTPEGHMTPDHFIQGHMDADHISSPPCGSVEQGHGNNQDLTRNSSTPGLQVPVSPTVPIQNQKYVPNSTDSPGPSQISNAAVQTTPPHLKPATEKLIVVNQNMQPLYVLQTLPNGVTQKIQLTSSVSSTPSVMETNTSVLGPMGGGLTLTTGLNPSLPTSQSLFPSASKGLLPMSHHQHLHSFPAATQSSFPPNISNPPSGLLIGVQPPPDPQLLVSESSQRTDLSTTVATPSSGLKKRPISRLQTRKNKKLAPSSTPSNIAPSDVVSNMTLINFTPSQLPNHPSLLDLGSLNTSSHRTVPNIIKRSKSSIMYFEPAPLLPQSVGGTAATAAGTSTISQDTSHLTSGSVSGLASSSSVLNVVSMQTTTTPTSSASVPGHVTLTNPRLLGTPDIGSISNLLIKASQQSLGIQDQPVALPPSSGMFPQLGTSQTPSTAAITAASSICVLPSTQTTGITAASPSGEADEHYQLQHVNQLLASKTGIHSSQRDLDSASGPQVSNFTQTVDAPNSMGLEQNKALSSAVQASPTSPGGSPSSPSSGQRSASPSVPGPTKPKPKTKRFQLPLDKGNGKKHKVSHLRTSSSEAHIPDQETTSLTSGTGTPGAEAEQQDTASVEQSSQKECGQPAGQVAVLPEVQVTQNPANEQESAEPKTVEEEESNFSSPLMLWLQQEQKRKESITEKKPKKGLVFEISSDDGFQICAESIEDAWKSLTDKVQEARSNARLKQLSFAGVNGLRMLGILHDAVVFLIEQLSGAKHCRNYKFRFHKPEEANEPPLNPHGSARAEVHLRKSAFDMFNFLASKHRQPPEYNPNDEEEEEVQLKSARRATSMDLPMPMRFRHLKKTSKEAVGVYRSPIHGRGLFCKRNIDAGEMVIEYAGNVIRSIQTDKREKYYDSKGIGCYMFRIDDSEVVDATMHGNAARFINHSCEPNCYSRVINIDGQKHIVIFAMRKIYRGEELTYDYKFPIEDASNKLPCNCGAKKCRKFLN

SMILES	FP activity change, negative = inhibition
COc1ccc(N/C(=N/P(=O)(N2CCOCC2)N2CCOCC2)N2CCOCC2)cc1	inactive: -1.59%

Reference: PubChem BioAssay AID1768 (National Center for Advancing Translational Sciences (NCATS), 2009)
